Reference: patent US9056843B2, “Trifluoromethyl-oxadiazole derivatives and their use in the treatment of disease” (NOVARTIS AG, priority 2011, dated 2015)

Amino acid sequences for entries named in this document (tags omitted). Residues count along the entry.
UniProt P56524, 2-1084: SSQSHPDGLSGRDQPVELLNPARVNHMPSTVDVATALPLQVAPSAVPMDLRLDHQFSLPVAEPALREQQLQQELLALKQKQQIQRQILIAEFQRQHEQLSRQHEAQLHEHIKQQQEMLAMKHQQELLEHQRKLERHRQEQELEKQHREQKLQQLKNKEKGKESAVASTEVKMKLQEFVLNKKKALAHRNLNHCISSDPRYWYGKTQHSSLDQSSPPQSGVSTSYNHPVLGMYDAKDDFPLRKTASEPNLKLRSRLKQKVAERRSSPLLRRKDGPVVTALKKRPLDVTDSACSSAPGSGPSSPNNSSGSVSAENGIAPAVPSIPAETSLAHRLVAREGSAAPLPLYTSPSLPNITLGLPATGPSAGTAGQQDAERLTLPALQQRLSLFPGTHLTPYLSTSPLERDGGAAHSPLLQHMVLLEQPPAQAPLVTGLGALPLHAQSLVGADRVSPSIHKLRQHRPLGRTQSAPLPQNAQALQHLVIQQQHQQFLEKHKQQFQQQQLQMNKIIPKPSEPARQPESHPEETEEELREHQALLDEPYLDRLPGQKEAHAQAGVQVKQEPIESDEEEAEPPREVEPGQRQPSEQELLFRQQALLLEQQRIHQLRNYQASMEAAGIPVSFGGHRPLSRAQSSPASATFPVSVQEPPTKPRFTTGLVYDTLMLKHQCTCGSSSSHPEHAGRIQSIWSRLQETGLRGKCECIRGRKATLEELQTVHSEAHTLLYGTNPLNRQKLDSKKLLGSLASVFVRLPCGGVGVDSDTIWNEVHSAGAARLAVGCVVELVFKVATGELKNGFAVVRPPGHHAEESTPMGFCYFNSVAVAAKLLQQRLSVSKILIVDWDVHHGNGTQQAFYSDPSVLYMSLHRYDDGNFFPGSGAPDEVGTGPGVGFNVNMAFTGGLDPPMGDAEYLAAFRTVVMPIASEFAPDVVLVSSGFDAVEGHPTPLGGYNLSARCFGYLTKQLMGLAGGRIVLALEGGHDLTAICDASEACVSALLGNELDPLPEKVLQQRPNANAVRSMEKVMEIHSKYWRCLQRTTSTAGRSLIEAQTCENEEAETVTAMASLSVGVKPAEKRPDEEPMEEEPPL

Biological target: Human recombinant HDAC4 (Homo sapiens (Human), UniProt P56524)
Test: Test 2: HDAC4 assay (fluorogenic substrate, 5 μM acetyl-Gly-Ala-Lys(ε-trifluoroacetyl)-AMC)
Format: biochemical
Conditions: Test 2 (values without asterisk)
Method: Test 2: HDAC4 Assay Description
Control wells with HDAC4 only (positive control) and without HDAC4 (negative control) were included on the microplate. Bovine trypsin (4.5 μl of a 300 nM solution) was added and the plate incubated for additional 15 minutes at room temperature. The plate was placed in a fluorescence microplate reader, and read at an excitation wavelength of 360 nm and an emission wavelength of 450 nm with a 10 nm bandpath. Fluorescence values for all wells containing HDAC4 (positive control and wells with test compound) were corrected by subtracting negative control fluorescence values, and IC50 values were calculated by fitting the dose-response curves to a 4-parameter logistic function.

CCCN(CCC)C[C@@H](C)NC(=O)c1ccc(-c2noc(C(F)(F)F)n2)cc1 [Example 137, (R)—N-(1-(dipropylamino)propan-2-yl)-4-(5-(trifluoromethyl)-1,2,4-oxadiazol-3-yl)benzamide] gave an IC50 of 970 pM.
